The chains behind the UniProt entries cited, without tags or fusion partners. Residues count along the entry.
UniProt P08246, 30-247 limits assumed: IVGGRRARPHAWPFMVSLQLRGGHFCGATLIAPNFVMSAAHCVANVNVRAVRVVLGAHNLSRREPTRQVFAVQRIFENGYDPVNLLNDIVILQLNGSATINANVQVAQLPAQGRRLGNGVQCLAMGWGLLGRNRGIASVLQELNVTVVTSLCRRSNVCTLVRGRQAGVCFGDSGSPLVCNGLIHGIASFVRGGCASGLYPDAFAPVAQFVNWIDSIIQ

In US9657015B2, “Substituted bicyclic dihydropyrimidinones and their use as inhibitors of neutrophil elastase activity” (Boehringer Ingelheim International GmbH, priority 2014, dated 2017):

Assays:
[1] = Metabolic stability with human liver microsomes; settings: pooled human liver microsomes, 37° C., 1 μM test compound, 1 mg/ml microsomal protein, NADPH
Caco-2 cells = test: Drug transport across human Caco-2 cells; settings: Caco-2 monolayers, pH 7.2, 37° C.; for PEAB: apical-to-basal; for PEBA: basal-to-apical
[2] = Aqueous solubility (High Throughput Method); settings: McIlvaine buffer pH 6.8, 2.5% DMSO, 24 h shaking
[3] = target: neutrophil elastase in human plasma (Homo sapiens (Human), UniProt P08246); test: Neutrophil elastase inhibitory activity in human plasma; format: biochemical; settings: human plasma assay (zymosan-stimulated blood plasma), substrate 250 μM, pH 7.5
[4] = target: Human neutrophil elastase (Homo sapiens (Human), UniProt P08246); test: Human Neutrophil Elastase Assay; format: biochemical; settings: substrate MeOSuc-Ala-Ala-Pro-Val-AMC 250 μM, pH 7.5, room temperature

Row | Compound | t1/2 INVITRO [1] [h] | PEAB (Caco-2 cells) [×10⁻⁶ cm/s] | PEBA (Caco-2 cells) [×10⁻⁶ cm/s] | Aqueous solubility [2] [µg/mL] | IC50 [3] [nM] | IC50 [4] [nM]
1 | CNC(=O)c1cc(C#N)ccc1C1C2=C(CCN(C)C2=O)N(c2cccc(C(F)(F)F)c2)C(=O)N1C (stereo not drawn) | >2.17 | 6.7 | 81 | 80 |  | 
2 | CC1CN(C(=O)CN2C(=O)N(c3cccc(C(F)(F)F)c3)C3=C(C(=O)N(C)CC3)C2c2ccc(C#N)cc2)CC1C (stereo not drawn) |  |  |  |  | 4.3 | 
3 | CN1CCC2=C(C1=O)C(c1ccc(C#N)cc1)N(CC(=O)NCCO)C(=O)N2c1cccc(C(F)(F)F)c1 (stereo not drawn) |  |  |  |  | 6.7 | 2.7
4 | CN(C)C(=O)c1cc(C#N)ccc1C1C2=C(CCN(C)C2=O)N(c2cccc(C(F)(F)F)c2)C(=O)N1C (stereo not drawn) |  | 11 | 110 | 86 | 8.1 | 2
